# The list shows a part of the results, in another mix than the full data. Some results for these compounds are left out of this collection, so the calls shown say nothing about other tests. The source made the active and inactive calls.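 How the source made its calls: active means highest replicate inhibition at or above 60% at 9 µM, even if other replicates fall short; inactive means all replicates below 60% inhibition.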
# System: Kaposi's sarcoma herpesvirus LANA C-terminal domain (residues 932-1162) DNA binding
# Assay: blockers of LANA C-terminal domain DNA interaction – biochemical, fluorescence polarization, FAM-LBS DNA, MBP-C-LANA, single point, primary screen (AID 504423);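 further: 0% = neutral control wells and 100% = 4 µM acridine orange control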
# Conditions: at 9 µM, active compounds read high
row,Structure (SMILES),inhibition
1,COc1cc(C(=O)NCC2(N(C)C)CCCCC2)c([N+](=O)[O-])cc1OC,inactive: 1.69%
2,CN(C)C1(CNC(=O)c2ccc(Br)cc2)CCCCC1,inactive: -0.339%
3,O=C(NCC1(N2CCCCC2)CCCCC1)c1cccc(Cl)c1,inactive: -0.0159%
4,COc1cccc(C(=O)NCC2(N3CCCCC3)CCCCC2)c1,inactive: -0.291%
5,COc1ccc(Cl)cc1C(=O)NCC1(N(C)C)CCCCC1,inactive: -0.373%
6,O=C(OC1CN2CCC1CC2)C(CO)(c1ccccc1)c1ccccc1 (stereo not given),inactive: 0.274%
7,CC(C)Oc1ccc(C(=O)NCC2(N(C)C)CCCCC2)cc1,inactive: -1.74%
8,O=C(OCCN1CCCC1)C(O)(c1ccccc1)c1ccccc1,inactive: -1.42%
9,CN(C)c1cccc(C(=O)NCC2(N(C)C)CCCCC2)c1,inactive: -0.648%
10,COc1ccc(Br)c(C(=O)NCC2(N3CCCCC3)CCCCC2)c1,inactive: 0.34%
11,CN1[C@@H]2CC[C@H]1CC(OC(=O)C(O)(c1ccccc1)c1ccccc1)C2 (stereo not given in full),inactive: 0.385%
12,O=C(NCC1(N2CCCCC2)CCCCC1)c1cc([N+](=O)[O-])ccc1Cl,inactive: -1.18%
13,Cc1ccc(C(=O)NCC2(N3CCCCC3)CCCCC2)cc1,inactive: -1.62%
14,CCN(CC)CC(C)C(C)OC(=O)C(O)(c1ccccc1)c1ccccc1 (stereo not given),inactive: 0.733%
15,COc1cc(SC)ccc1C(=O)NCC1(N(C)C)CCCCC1,inactive: -2.29%
16,CC(C)N1C(=O)CC2(CCN(CCOC(=O)C(O)(c3ccccc3)c3ccccc3)CC2)C1=O,inactive: -0.415%
17,Cc1ccccc1C(=O)NCC1(N2CCCCC2)CCCCC1,inactive: -0.722%
18,CN(C)c1ccc(C(=O)NCC2(N(C)C)CCCCC2)cc1,inactive: -0.64%
19,CN(C)C1CCCC1OC(=O)C(O)(c1ccccc1)c1ccccc1 (stereo not given),inactive: 0.131%
20,COc1ccc(C(=O)NCC2(N(C)C)CCCCC2)cc1,inactive: -3.92%
21,CCN1CCCC(OC(=O)C2(O)c3ccccc3C=Cc3ccccc32)C1 (stereo not given),inactive: 2.56%
22,Cc1cc(C(=O)NCC2(N3CCCCC3)CCCCC2)ccc1[N+](=O)[O-],inactive: 0.538%
23,O=C(NCC1(N2CCCCC2)CCCCC1)c1cccc(Br)c1,inactive: -1.83%
24,C=CCN1CCN(CCOC(=O)C(O)(c2ccccc2)c2ccccc2)CC1,inactive: 1.32%
25,O=C(NCC1(N2CCCCC2)CCCCC1)c1cc(F)c(F)cc1Cl,inactive: -0.757%

# Reference: PubChem BioAssay AID504423 (Broad Institute, 2011)
